The values that follow come from ChEMBL document CHEMBL3862026, “Synthesis and biological evaluation of ranitidine analogs as multiple-target-directed cognitive enhancers for the treatment of Alzheimer's disease” (Bioorg Med Chem Lett, 2016).

Protein sequences, listed by entry. Tags and fused reporters are not part of them.
UniProt P81908, whole entry: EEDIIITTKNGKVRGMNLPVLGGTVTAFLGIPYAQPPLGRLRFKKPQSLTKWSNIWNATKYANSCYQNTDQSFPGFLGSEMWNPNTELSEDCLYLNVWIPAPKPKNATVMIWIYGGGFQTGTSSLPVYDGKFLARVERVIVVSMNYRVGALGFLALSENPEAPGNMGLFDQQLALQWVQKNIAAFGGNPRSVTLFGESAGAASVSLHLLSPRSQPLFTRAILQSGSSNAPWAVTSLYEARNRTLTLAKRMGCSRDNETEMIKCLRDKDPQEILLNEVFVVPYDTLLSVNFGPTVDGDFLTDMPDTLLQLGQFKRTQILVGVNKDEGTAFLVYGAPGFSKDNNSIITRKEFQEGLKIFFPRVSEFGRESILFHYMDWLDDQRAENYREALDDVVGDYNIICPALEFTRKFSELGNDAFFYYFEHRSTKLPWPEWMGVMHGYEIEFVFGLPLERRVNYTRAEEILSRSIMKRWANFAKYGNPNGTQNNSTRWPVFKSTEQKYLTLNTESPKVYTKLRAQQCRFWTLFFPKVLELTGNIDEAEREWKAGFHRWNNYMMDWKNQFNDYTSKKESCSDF

The structures appear in SMILES notation.

The target of this experiment is Cholinesterase (Equus caballus, UniProt P81908). As to the kind of experiment: Inhibition of equine serum BuChE using butyrylthiocholine as substrate preincubated for 8 mins followed by substrate addition by Ellman's method.

The compound `CN(C)Cc1ccc(CSCCNc2nnccc2[N+](=O)[O-])o1` returned an IC50 of 10 µM. In other words, the double-digit micromolar range.
